Key:
[1] = system: M3:NFATc1-EGFP U2OS human osteosarcoma cells
[2] = molecular target: human muscarinic M3 receptor (Homo sapiens, UniProt P20309)
[3] = molecular target: recombinant human acetylcholinesterase (rhAChE) (Homo sapiens, UniProt P22303)

Amino acid sequences for entries named in this document (tags omitted). Residues count along the entry.
UniProt P20309, whole entry, looked up: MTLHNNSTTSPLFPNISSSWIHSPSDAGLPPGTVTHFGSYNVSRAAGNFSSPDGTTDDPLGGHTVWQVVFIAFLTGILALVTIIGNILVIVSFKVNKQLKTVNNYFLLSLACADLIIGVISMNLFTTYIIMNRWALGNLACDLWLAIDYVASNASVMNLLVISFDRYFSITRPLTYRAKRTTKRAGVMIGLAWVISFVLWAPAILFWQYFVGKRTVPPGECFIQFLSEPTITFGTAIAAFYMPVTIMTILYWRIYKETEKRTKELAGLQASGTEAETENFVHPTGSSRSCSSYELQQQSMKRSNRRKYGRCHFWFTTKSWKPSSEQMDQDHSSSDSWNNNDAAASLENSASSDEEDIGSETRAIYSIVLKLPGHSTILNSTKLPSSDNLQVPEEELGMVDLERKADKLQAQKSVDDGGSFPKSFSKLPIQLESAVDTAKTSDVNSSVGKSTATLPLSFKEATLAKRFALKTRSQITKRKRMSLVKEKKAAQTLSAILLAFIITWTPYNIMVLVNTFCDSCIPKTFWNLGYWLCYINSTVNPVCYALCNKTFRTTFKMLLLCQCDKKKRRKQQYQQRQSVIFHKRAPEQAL
UniProt P22303, 32-614 limits assumed: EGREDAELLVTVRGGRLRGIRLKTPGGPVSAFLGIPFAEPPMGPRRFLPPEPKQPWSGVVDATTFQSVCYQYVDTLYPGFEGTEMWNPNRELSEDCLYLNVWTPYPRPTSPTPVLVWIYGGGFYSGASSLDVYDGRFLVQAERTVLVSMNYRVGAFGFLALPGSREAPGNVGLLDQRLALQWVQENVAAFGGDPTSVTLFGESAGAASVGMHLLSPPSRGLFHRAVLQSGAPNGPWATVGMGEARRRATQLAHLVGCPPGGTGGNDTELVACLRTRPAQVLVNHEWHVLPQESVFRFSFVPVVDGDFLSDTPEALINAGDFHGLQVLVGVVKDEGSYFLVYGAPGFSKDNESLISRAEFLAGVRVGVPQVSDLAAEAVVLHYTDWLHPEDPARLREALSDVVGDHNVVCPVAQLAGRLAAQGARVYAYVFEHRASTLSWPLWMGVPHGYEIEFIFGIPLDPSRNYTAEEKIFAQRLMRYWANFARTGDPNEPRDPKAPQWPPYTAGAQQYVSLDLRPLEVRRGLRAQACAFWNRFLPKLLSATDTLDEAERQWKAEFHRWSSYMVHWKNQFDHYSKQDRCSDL

SMILES: COc1cc2c(cc1OC)C(=O)C(CC1CCN(Cc3ccccc3)CC1)C2 (centres unmarked)
- expression level of cell actin ([1]; FIG. 7 A and B, concentration-dependent): increased expression level of cell actin
- nuclear area ([1]; FIG. 7 A and C): increased nuclear area
- tubulin distribution in cells ([1]; FIG. 7 A, as concentration increased): increased tubulin distribution in a concentration-dependent manner

SMILES: CC(=O)OCC[N+](C)(C)C.[I-]
- concentration at which the cells appeared an activation reaction [2]: 0.3 nM
- concentration at which the maximum degree of nuclear translocation of EGFP-NFATc1 was reached [2]: 30 nM
- degree of nuclear translocation of EGFP-NFATc1 relative to the maximum degree ([2]; AChI 1 nM): approximately 40%

SMILES: CCOP(=S)(OCC)Oc1nc(Cl)c(Cl)cc1Cl
- lowest detection concentration ([3]; 0.01 U/mL rhAChE, 30 nM ACh, 10 min): 3 µM
- IC50 ([3]; read-out: IC50 against rhAChE, AChEI preincubated with rhAChE 37° C. 30 min, AChI 10 min, cells 20 min): 13.3 µM

Source: patent publication US20250101490A1, “METHOD FOR SCREENING ACETYLCHOLINESTERASE INHIBITOR” (published 2025)
